Assay results published in patent publication US20060177452A1 (BURNHAM INSTITUTE FOR MEDICAL RESEARCH, published 2006).

Molecular target: T1, EphB2 ectodomain fused to human Fc, carboxy-terminal hexahistidine tag (human)
T1 chain: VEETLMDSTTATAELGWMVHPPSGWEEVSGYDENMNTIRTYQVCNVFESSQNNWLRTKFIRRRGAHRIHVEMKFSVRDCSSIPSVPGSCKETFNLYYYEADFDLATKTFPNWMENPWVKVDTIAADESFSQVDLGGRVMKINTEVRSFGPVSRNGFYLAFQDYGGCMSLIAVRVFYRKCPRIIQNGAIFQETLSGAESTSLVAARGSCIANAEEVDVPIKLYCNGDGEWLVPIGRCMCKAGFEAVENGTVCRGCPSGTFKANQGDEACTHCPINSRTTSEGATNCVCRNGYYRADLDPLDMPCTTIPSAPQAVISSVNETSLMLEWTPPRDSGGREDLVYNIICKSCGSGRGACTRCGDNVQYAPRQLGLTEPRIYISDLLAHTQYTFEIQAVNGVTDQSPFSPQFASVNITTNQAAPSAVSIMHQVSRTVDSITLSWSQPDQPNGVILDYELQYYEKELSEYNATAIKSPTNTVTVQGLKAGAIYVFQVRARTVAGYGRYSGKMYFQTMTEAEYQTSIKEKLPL
Assay: inhibition of ephrin-B2 AP binding to immobilized EphB2 ectodomain Fc; biotinylated peptide

B1: SNEW peptide, synthetic, biotinylated (peptide)
peptide: SNEWIQPRLPQHGSGS
modifications: C-terminal biotin: on the Lys side chain of a GSGSK linker, or N-biotinyl-ethylenediamine after GSGS (which one is not stated)
  IC50: ~15 µM
